Values quoted from earlier work as cited in publication PMC9132125 (Journal of natural products, 2016).

Test system: GSK-3β
Conditions: read-out: GSK-3β IC50; previously published; cited from earlier work

Cl.Cl.O=C1Nc2cc(Br)ccc2/C1=C1/Nc2ccccc2/C1=N\OCCN1CCNCC1 [compound 22]
IC50: 3.3 nM
